Values of other authors in patent EP1241153A1, “GAS-GENERATING AGENT COMPOSITION” (dated 2001).

Tested on: rat

N.N.N1=NC(=C2N=NN=N2)N=N1
LD50 (oral-rat): 2,000 mg/kg
